System: breast cancer tumor in the liver with over-expression of the HER2 receptor
Assay: Targeted SWIR imaging of a liver tumor with near infrared dye-antibody conjugate
Format: in vivo
Settings: mouse with HER2 over-expressing breast cancer tumor in liver; conjugate injected intraperitoneally 15 mg/kg; imaged three days after injection
Method: The dye-antibody conjugate was injected intraperitoneally into a mouse at a dose of 15 mg/kg body weight. Three days after the initial injection of the dye-antibody conjugate, the mouse was imaged using SWIR fluorescence detection.
As a control experiment, IRDye 800CW was conjugated to IgG, a non-specific antibody. The conjugate was injected into a second mouse model implanted with the same tumor in the same location.
FIG. 4 presents a white light image of both the control mouse on the left and the trastuzumab-labeled mouse on the right with room-lights on for positioning reference. FIG. 5 presents an SWIR image of both mice in the same positions.

IRDye800-trastuzumab: Trastuzumab, a HER2-receptor targeting antibody, conjugated to IRDye 800CW using a commercially available labeling kit
SWIR fluorescence signal indicating the position of the tumor: strong fluorescence signal

Source: patent US11579088B2, “Device and method for imaging shortwave infrared fluorescence” (Massachusetts Institute of Technology, priority 2016, dated 2023)
